Data on one compound can be found in ChEMBL document CHEMBL3407331, “Discovery of AM-7209, a potent and selective 4-amidobenzoic acid inhibitor of the MDM2-p53 interaction” (J Med Chem, 2014).

In this test the test system is SJSA-1. The experiment in a line: cells. Particulars: Homo sapiens, SJSA-1, 16 h.

As for `CC(C)(C)S(=O)(=O)C[C@H](C1CC1)N1C(=O)[C@@](C)(CC(=O)O)C[C@H](c2cccc(Cl)c2)[C@H]1c1ccc(Cl)c(F)c1`, the IC50 worked out at 1.2 nM.

What is called IC50 is the concentration at which inhibition is half-maximal. A low value points to inhibition by little substance.
